Only some compounds are listed: those with a hit (about 2.2% of all), similar ones and a draw of the others.
GALK inhibitor = galactokinase (human) inhibition; P51570; Purified GALK, Kinase-Glo residual ATP luminescence; Potency, µM (doses to about 57.5 µM), inactives show at the top dose activity change, negative = inhibition, most hits filed as inhibitors; 270,000 tested, 0.007% active; also: potency is read from the fitted curve at half-maximal effect; % is scaled to controls: 0 for no effect and ±100 for the full control effect
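GALK at 5 nM final was combined with compound, 35 uM ATP and 100 uM galactose in HEPES pH8.0 with MgCl2 and DTT. The reaction ran one hour at room temperature before luminescent ATP detection.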
PI4K2A inh = blocks human PI4K2A kinase activity. purified PI4K2A, ADP-Glo luminescence, 1 h; stronger effect = lower value. activity change, negative = inhibition, % at 76.9 µM. 420,000 tested, 0.13% active; in the data active = activity change below about -50%; inconclusive = mostly about -30% to -49%;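 also: -100% = wells without enzyme as full effect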
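In this quantitative HTS, ADP production by PI4K2A was quantified luminescently after 1 h at ambient temperature; 100 microM adenosine served as plate-quality control.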
Nrf2 inh = Nrf2 pathway inhibition; A549 ARE-Fluc reporter, luciferase luminescence, 18-24 h; Potency, µM (highest dose often 46 µM), for the others: top-dose activity change, negative = inhibition, most hits filed as inhibitors; 360,000 tested, 2.1% active; AID 504444; also: potency is read from the fitted curve at half-maximal effect; % is scaled to controls: 0 for no effect and ±100 for the full control effect; nearly all actives have a fitted effect of over 60% in size
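Nrf2 function is reported as luminescence of an ARE-controlled luciferase in A549 cells. Compounds were tested at several concentrations, and a CellTiter-Fluor read on the same wells flagged cytotoxicity.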
Nrf2 activator = activators of Nrf2 (ARE) signaling. AREc32 ARE-luciferase reporter (MCF7-derived line), luminescence, 24 h. Potency, µM (doses to about 46.1 µM), without a hit: at the top dose activation, usual class: activators. 410,000 tested, 0.31% active. AID 624171; also: potency is read from the fitted curve at half-maximal effect; % of control where 0% means no effect; nearly all actives have a fitted effect of over 65% in size
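Each well held 1000 AREc32 cells, which were incubated with compound for 24 hr at 37 deg C after overnight attachment, and ARE reporter activity was quantified by firefly luciferase luminescence.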
miR-21 reporter = miR-21 reporter, rising signal; HeLa miR-21 FLuc reporter, luciferase, 48 h; Potency, µM (top dose mostly 38.3 µM), without a hit: at the top dose reporter change, positive = more light; 340,000 tested, under 10 active; active = well fitted rising curve with a large enough effect; inconclusive = small, poorly fitted or top-dose-only effect; inactive = no such curve, though single readings can be large or run the other way;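 note: % of control where 0% means no effect; miR-21 action dims this reporter so a rising signal means less miR-21 action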
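HeLa cells stably expressing CMV-driven firefly luciferase with a downstream miR-21 binding sequence, endogenously expressing miR-21, were treated with titrations (up to about 40uM final) for 48 hours at 37 degree Celsius. Luciferase luminescence was read after lysis.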
A549 viability = counter-screen for Nrf2 inhibitors: cytotoxicity in A549 cells; A549 ARE-Fluc cells, CellTiter-Fluor viability, 18-24 h; Potency, µM (titrated, usually from 46 µM), for inactives: top-dose activity change, negative = cytotoxicity, most hits filed as inhibitors; 390,000 tested, 0.16% active; AID 504648; also: potency is read from the fitted curve at half-maximal effect; % is scaled to controls: 0 for no effect and ±100 for the full control effect
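A549 ARE-Fluc cells in 5% FBS OPTI-MEM, 5000 cells/well, rested 2 h then exposed to compounds in concentration-response for 18-24 h at 37 °C. Viability by CellTiter-Fluor fluorescence (Ex 405/Em 525) after 30 min; luciferase luminescence (BugLite, 15 min, RT) read afterwards.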
* marks the source's active call; other numbers are inactive results; u = inconclusive; x = no result. Unless noted, calls follow the shape of the dose curve; as a rule, active = well fitted curve in the direction sought with a large enough effect; inconclusive = small, poorly fitted or top-dose-only effect, or another doubt; inactive = no such curve, though single readings can be large; an effect the other way counts as inactive or inconclusive.

SMILES	GALK inhibitor	PI4K2A inh	Nrf2 inh	Nrf2 activator	miR-21 reporter	A549 viability
O=C(NCC(c1cccnc1)N1CCc2ccccc21)c1cccc(Br)c1 (stereo not drawn)	x	-4	16µM*	-3%	26%	0%
CCOc1cc(-c2cc(-c3ccc(C)o3)nc(N)c2C#N)ccc1O	0%	-5	15µM*	5%	16%	u
CN(C(=O)COC(=O)c1nc(Cl)c(Cl)c(Cl)c1Cl)C1CCS(=O)(=O)C1 (stereo not drawn)	6%	-10	-24%	13µM*	u	u
CN(C(=O)COC(=O)c1ccc(C(C)(C)C)cc1)C1CCS(=O)(=O)C1 (stereo not drawn)	x	4	-7%	0%	x	-6%
c1ccc(CCSc2nnc(-c3cccnc3)n2Cc2ccccc2)cc1	x	8	x	x	x	x
CCc1nnc(SCC(=O)N(CC)c2ccccc2)c2cc3oc(C)cc3n12	x	0	-28%	5.6µM*	-1%	-1%
Nc1nc(CSC(=S)N2CCN(c3ccccc3)CC2)nc(Nc2ccc(F)cc2)n1	3%	-1	21µM*	4%	11%	-3%
CC[C@H](CCCc1ccc(OC)cc1)CCC(=O)N1CCOCC1	x	0	x	x	x	x
Cc1ccccc1C(=O)N1CCCC(CCC(=O)N2CCN(c3ccccn3)CC2)C1 (stereo not drawn)	-2%	2	23µM*	1%	16%	-10%
CC(=O)c1c(C)[nH]c(C(=O)C(C)Sc2nnc(NC3CC3)s2)c1C (stereo not drawn)	x	19	16µM*	3%	x	-9%
CC(Sc1nnc(NC2CC2)s1)C(=O)Nc1ccc(N2CCOCC2)cc1 (stereo not drawn)	x	1	3%	-1%	x	-3%
COc1ccc2c(n1)Sc1nc3ccccc3nc1N2	1%	-2	u	4.5µM*	-54%	1%
COc1cc2ccccc2nn1	-3%	3	4%	0%	-9%	u
NC(=O)c1ccc(N2CCN(c3ccc(O)cc3)CC2)c([N+](=O)[O-])c1	6%	-7	18µM*	1%	-5%	-22%
NC(=O)CC(NC(=O)c1ccccc1)c1ccc(N2CCN(c3ccccc3)CC2)c([N+](=O)[O-])c1 (stereo not drawn)	x	-2	u	-1%	6%	-5%
NC(=O)CC(NC(=O)c1ccccc1)c1ccc(N2CCN(c3ccc(F)cc3)CC2)c([N+](=O)[O-])c1 (stereo not drawn)	x	2	21µM*	0%	20%	-19%
CC(=O)N[C@@H](CCC(N)=O)C(=O)O	x	-3	x	x	x	x
Cc1cc(N2CCN(C(=O)Oc3ccc(-c4ccccc4)cc3)CC2)c2ccccc2n1	x	0	x	x	x	x
COc1ccc(CN2C(=O)CCCC2(C)c2nnnn2-c2ccc3c(c2)OCCO3)cc1 (stereo not drawn)	x	3	x	x	x	x
COc1ccc([N+](=O)[O-])cc1NC(=O)CSc1ccc2ccccc2c1	x	-2	18µM*	u	4%	-16%

Sorted by SMILES length (ascending): part of the list above
SMILES	GALK inhibitor	PI4K2A inh	Nrf2 inh	Nrf2 activator	miR-21 reporter	A549 viability
Cc1ccccc1C(=O)N1CCCC(CCC(=O)N2CCN(c3ccccn3)CC2)C1 (stereo not drawn)	-2%	2	23µM*	1%	16%	-10%
Nc1nc(CSC(=S)N2CCN(c3ccccc3)CC2)nc(Nc2ccc(F)cc2)n1	3%	-1	21µM*	4%	11%	-3%
NC(=O)CC(NC(=O)c1ccccc1)c1ccc(N2CCN(c3ccccc3)CC2)c([N+](=O)[O-])c1 (stereo not drawn)	x	-2	u	-1%	6%	-5%

One compound at a time (already shown). Values in the order: GALK inhibitor	PI4K2A inh	Nrf2 inh	Nrf2 activator	miR-21 reporter	A549 viability
`O=C(NCC(c1cccnc1)N1CCc2ccccc21)c1cccc(Br)c1` (stereo not drawn) is entered as x	-4	16µM*	-3%	26%	0%
`NC(=O)CC(NC(=O)c1ccccc1)c1ccc(N2CCN(c3ccc(F)cc3)CC2)c([N+](=O)[O-])c1` (stereo not drawn) is entered as x	2	21µM*	0%	20%	-19%
`COc1cc2ccccc2nn1` is entered as -3%	3	4%	0%	-9%	u

Remaining list, next part:
SMILES	GALK inhibitor	PI4K2A inh	Nrf2 inh	Nrf2 activator	miR-21 reporter	A549 viability
COc1ccc([N+](=O)[O-])cc1NC(=S)NC(NC(=O)C(c1ccccc1)c1ccccc1)C(Cl)(Cl)Cl (stereo not drawn)	0%	2	15µM*	0%	u	u
O=C(NNC(=S)NC(=O)c1ccccc1Cl)c1cccc([N+](=O)[O-])c1	-3%	3	-22%	-1%	-10%	-5%
COc1ccc([N+](=O)[O-])cc1NC(=O)C(C)Sc1ccc(C)cc1 (stereo not drawn)	4%	3	18µM*	0%	1%	-2%
O=C(NC(NC(=S)Nc1c(Cl)cccc1Cl)C(Cl)(Cl)Cl)c1cccc([N+](=O)[O-])c1 (stereo not drawn)	-2%	1	16µM*	5%	u	u
C[C@@H]1COc2cc(Br)ccc2S(=O)(=O)N1Cc1cn(CCC2OCCCO2)nn1	x	-3	x	x	x	x
O=C(NCCCN1CCN(c2ccc(F)cc2)CC1)Nc1ccccc1	x	-6	x	x	x	x
O=C(CSc1cccc[n+]1[O-])Nc1cc([N+](=O)[O-])ccc1Cl	9%	-2	2%	10µM*	3%	4%
O=C(CSc1cccc[n+]1[O-])Nc1cc2c(cc1Cl)C(=O)c1ccccc1C2=O	1%	-11	u	7%	-48%	12%
COc1ccc([N+](=O)[O-])cc1NC(=O)C(C)NNC(=O)c1cccc([N+](=O)[O-])c1 (stereo not drawn)	x	3	16µM*	6%	x	-4%
COc1ccc([N+](=O)[O-])cc1NC(=O)C(C)c1ccccc1 (stereo not drawn)	2%	-1	-13%	11%	-10%	13%
COc1ccc(OC[C@@H](O)CN2CCC(C(O)(c3ccccc3)c3ccccc3)CC2)cc1	x	-4	x	x	x	x
O=S(=O)(c1ccc(Br)cc1)N1CCN(c2nc(-c3cccs3)nc3ccccc23)CC1	x	x	-2%	x	x	0%
CNC(=O)c1cccc(NC(=O)C(C)c2ccc3cc(OC)ccc3c2)c1 (stereo not drawn)	-2%	-7	-11%	5%	12%	0%
COc1ccc2cc(C(C)C(=O)Nc3cccc(S(=O)(=O)N(C)C)c3)ccc2c1 (stereo not drawn)	3%	0	16µM*	4%	7%	-21%
CC(C)C(=O)Nc1cccc(S(=O)(=O)c2cccc(NC(=O)C(C)C)c2)c1	-3%	-3	21µM*	2%	12%	-17%
O[C@@H](CNC[C@H](O)[C@H]1CCc2cc(F)ccc2O1)[C@@H]1CCc2cc(F)ccc2O1	x	1	x	x	x	x
c1nc(NCCc2cnc[nH]2)c2cc(-c3ccc4c(c3)OCO4)ccc2n1	x	x	8%	x	x	-1%
COc1ccc(-n2c(-c3cccc(OC)c3)nc(=S)c3c2CCCC3)cc1	-4%	0	26µM*	3%	-6%	-12%
O=S(=O)(Nc1cc(Cl)ccc1-n1cncn1)c1cc(Br)ccc1Br	x	-4	13µM*	0%	x	u
O=S(=O)(Nc1cc(Cl)ccc1-n1cncn1)c1ccccc1Cl	x	0	u	0%	x	1%
COc1ccc([C@H]2[C@H](c3ccccc3)C(=O)N2Cc2ccccc2)cc1COc1ccc(NC(C)=O)cc1	x	x	u	x	x	-3%
Cc1ccc(-c2cc(-c3ccccc3)c3c(N)c(S(C)(=O)=O)sc3n2)cc1	2%	-3	13µM*	2%	-6%	11%
CS(=O)(=O)c1sc2nc(-c3cccs3)cc(-c3ccccc3)c2c1N	-4%	-10	-20%	3%	-3%	-4%
